Experimental data: US20090196918A1, “Liposomal formulations of hydrophobic lactone drugs in the presence of metal ions” (University of Kentucky Research Foundation, priority 2008, published 2009)

Assay: Drug loading of DB-67 into liposomes by passive encapsulation
Conditions: liposomes prepared at pH 4 using 0.1 M hydroxypropyl-β-cyclodextrin and DB-67 lactone; same lipid concentration

DB-67 concentration of liposome suspension that could be prepared (loading): 0.8 mg/mL
SMILES: CC[C@@]1(O)C(=O)OCc2c1cc1n(c2=O)Cc2c-1nc1ccc(O)cc1c2[Si](C)(C)C(C)(C)C [DB-67, 7-t-butyldimethylsilyl-10-hydroxycamptothecin]
